Results reported in PubChem BioAssay AID651999 (Sanford-Burnham Center for Chemical Genomics, 2013).
The list shows a part of the results, in another mix than the full data. Calls of active or inactive are those of the source.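 The calls were made as follows: active = pattern-corrected inhibition above about 35%, with an unprinted fluorescence ratio check between 0.5 and 1.5 (limit read from the data, passing the limit was not always enough); inactive = the rest.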

Amino acid sequences for entries named in this document (tags omitted).
UniProt Q92905, whole entry: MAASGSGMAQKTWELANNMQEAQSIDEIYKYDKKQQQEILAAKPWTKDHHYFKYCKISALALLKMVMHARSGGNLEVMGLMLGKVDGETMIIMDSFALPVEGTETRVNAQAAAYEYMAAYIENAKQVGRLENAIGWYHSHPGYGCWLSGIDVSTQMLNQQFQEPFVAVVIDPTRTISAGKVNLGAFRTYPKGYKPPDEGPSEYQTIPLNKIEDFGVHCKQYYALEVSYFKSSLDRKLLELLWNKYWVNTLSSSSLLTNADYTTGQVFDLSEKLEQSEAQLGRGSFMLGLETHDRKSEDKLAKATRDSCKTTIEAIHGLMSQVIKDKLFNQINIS

molecular target: COP9 signalosome complex subunit 5 (Homo sapiens) (UniProt Q92905); experiment: CSN5 deneddylase inhibitors on cullin-RING ligase – biochemical, fluorescence polarization, uHTS, primary screen (AID 651999); conditions: Purified CSN, SCF-Nedd8-OG deneddylation, at 12.5 µM, stronger effect = higher value;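 also: 0% = enzyme with substrate and 100% = substrate without enzyme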
Outline: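 Assay system: purified human Csn5 enzyme expressed in HEK293T cells; Input: 0.24 nM Csn5 enzyme, final concentration; Reagent: 10 nM SCFSkp2-Nedd8OG; Compound dosing: 12.5 µM single point; Times: reaction 90 min, room temperature; Technique: fluorescence polarization readout.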

SMILES	inhibition
CCC(=O)N(c1ccccc1)C1(COC)CCN(CCn2nnn(CC)c2=O)CC1	inactive: 2.25%
CCC(=O)N(c1ccccc1)C1(COC)CCN(CCc2cccs2)CC1	inactive: 0.57%
